From ChEMBL document CHEMBL1133089 (J Med Chem, 2000)

Sequences of proteins named here, by UniProt entry; tags and fusion partners are left off. A change or cut given only in a name is not applied to a line headed by its entry.
UniProt P09483: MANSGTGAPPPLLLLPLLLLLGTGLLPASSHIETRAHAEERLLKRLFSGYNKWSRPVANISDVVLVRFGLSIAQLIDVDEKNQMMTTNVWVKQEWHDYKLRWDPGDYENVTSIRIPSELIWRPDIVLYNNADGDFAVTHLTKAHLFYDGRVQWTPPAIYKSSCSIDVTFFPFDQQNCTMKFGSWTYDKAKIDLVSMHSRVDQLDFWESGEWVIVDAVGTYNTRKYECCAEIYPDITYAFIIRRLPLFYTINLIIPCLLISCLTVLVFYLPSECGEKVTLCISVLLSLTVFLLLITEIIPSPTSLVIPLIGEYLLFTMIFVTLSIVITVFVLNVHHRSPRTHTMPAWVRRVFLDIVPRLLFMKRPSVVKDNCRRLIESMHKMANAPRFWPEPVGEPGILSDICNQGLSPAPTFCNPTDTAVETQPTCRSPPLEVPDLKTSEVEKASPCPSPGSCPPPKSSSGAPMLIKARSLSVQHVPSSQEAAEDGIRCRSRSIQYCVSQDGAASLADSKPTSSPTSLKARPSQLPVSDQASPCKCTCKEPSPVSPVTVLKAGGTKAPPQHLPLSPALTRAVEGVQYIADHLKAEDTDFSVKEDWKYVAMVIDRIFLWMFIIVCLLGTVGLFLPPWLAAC
UniProt P12390, whole entry: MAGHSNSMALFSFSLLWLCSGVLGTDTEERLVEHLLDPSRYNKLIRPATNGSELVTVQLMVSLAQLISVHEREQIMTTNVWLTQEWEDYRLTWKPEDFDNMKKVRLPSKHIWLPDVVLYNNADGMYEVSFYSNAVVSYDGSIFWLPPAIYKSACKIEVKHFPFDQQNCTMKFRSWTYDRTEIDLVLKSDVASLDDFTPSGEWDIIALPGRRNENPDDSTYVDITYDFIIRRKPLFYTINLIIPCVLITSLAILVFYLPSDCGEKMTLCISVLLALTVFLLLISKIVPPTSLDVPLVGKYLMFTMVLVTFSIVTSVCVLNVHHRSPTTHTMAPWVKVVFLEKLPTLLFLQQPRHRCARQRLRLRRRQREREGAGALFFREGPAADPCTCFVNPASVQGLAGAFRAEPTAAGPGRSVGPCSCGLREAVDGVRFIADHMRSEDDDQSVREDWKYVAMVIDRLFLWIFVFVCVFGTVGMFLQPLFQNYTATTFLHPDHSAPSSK

Biological target: Neuronal acetylcholine receptor; alpha4/beta2 (Rattus norvegicus, UniProt P09483+P12390)
Assay: binding affinity in rat forebrain against alpha4-beta2 nicotinic receptor

| Structure (SMILES) | Ki |
| --- | --- |
| O=C1NC[C@@]2(CN3CCC2CC3)O1 | 16 µM |
| O=C1NCC2(CN3CCC2CC3)O1 (single isomer, unassigned; (+)) | 30 µM |
| O=C1NCC2(CN3CCC2CC3)O1 (single isomer, unassigned; (-)) | 16 µM |
